In data set [1] the target is T1, Kv1.3 (Mus musculus, UniProt P16390).
T1 construct: expressed in transfected cells
Kind of data set: Patch-clamp block of Kv1.3 channels stably expressed in L929 cells. It counts as cell-based. On the technique in general: Patch clamp records ionic current or voltage across a cell membrane.

Chains of the proteins cited; added tags and fusions are not shown. Lines headed by an entry give the natural chain unless they say otherwise; changes in a name come on top.
UniProt P16390, whole entry: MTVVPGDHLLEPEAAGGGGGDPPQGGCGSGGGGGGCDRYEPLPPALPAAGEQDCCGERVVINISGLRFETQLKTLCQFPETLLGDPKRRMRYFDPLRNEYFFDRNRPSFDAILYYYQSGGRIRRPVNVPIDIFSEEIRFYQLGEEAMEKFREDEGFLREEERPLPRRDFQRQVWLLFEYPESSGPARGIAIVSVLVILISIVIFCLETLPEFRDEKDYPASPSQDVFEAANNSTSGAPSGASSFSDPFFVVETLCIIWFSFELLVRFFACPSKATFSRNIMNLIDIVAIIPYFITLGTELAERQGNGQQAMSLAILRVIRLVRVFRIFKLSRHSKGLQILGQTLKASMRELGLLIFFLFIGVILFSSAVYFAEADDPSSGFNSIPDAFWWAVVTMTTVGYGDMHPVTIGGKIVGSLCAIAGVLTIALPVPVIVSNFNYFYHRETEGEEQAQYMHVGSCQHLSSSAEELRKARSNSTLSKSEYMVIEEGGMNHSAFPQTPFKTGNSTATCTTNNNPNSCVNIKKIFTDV
UniProt Q12809: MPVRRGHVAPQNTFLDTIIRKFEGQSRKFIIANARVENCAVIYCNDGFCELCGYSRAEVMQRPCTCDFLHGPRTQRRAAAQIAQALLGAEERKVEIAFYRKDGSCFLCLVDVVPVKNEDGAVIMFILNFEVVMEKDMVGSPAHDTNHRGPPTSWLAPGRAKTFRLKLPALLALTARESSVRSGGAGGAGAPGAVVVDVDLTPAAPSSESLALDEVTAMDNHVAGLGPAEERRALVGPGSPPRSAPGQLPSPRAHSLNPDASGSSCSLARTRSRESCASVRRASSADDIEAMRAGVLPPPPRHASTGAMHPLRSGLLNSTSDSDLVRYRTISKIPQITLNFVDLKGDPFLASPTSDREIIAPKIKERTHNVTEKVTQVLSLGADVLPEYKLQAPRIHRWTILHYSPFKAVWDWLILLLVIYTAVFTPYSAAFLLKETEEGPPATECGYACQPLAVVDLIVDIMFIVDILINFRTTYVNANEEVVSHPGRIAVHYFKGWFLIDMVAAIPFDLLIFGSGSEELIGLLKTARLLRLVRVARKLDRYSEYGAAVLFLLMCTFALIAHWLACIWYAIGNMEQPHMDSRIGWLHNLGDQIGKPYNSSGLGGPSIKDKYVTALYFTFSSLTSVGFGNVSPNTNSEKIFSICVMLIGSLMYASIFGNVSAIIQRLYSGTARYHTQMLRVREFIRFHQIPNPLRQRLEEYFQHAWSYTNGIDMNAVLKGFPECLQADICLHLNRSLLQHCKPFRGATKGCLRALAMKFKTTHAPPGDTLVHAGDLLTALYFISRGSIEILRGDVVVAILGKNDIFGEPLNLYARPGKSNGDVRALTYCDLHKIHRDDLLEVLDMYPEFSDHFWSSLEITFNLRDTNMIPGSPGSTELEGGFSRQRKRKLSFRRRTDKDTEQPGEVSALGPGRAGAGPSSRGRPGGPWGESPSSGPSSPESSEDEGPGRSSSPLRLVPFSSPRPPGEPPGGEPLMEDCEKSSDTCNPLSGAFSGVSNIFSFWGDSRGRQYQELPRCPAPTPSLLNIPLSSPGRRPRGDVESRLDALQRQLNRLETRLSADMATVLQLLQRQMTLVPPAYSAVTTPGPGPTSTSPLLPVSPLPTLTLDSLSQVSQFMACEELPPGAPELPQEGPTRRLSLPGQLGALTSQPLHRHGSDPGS
UniProt Q13936, whole entry: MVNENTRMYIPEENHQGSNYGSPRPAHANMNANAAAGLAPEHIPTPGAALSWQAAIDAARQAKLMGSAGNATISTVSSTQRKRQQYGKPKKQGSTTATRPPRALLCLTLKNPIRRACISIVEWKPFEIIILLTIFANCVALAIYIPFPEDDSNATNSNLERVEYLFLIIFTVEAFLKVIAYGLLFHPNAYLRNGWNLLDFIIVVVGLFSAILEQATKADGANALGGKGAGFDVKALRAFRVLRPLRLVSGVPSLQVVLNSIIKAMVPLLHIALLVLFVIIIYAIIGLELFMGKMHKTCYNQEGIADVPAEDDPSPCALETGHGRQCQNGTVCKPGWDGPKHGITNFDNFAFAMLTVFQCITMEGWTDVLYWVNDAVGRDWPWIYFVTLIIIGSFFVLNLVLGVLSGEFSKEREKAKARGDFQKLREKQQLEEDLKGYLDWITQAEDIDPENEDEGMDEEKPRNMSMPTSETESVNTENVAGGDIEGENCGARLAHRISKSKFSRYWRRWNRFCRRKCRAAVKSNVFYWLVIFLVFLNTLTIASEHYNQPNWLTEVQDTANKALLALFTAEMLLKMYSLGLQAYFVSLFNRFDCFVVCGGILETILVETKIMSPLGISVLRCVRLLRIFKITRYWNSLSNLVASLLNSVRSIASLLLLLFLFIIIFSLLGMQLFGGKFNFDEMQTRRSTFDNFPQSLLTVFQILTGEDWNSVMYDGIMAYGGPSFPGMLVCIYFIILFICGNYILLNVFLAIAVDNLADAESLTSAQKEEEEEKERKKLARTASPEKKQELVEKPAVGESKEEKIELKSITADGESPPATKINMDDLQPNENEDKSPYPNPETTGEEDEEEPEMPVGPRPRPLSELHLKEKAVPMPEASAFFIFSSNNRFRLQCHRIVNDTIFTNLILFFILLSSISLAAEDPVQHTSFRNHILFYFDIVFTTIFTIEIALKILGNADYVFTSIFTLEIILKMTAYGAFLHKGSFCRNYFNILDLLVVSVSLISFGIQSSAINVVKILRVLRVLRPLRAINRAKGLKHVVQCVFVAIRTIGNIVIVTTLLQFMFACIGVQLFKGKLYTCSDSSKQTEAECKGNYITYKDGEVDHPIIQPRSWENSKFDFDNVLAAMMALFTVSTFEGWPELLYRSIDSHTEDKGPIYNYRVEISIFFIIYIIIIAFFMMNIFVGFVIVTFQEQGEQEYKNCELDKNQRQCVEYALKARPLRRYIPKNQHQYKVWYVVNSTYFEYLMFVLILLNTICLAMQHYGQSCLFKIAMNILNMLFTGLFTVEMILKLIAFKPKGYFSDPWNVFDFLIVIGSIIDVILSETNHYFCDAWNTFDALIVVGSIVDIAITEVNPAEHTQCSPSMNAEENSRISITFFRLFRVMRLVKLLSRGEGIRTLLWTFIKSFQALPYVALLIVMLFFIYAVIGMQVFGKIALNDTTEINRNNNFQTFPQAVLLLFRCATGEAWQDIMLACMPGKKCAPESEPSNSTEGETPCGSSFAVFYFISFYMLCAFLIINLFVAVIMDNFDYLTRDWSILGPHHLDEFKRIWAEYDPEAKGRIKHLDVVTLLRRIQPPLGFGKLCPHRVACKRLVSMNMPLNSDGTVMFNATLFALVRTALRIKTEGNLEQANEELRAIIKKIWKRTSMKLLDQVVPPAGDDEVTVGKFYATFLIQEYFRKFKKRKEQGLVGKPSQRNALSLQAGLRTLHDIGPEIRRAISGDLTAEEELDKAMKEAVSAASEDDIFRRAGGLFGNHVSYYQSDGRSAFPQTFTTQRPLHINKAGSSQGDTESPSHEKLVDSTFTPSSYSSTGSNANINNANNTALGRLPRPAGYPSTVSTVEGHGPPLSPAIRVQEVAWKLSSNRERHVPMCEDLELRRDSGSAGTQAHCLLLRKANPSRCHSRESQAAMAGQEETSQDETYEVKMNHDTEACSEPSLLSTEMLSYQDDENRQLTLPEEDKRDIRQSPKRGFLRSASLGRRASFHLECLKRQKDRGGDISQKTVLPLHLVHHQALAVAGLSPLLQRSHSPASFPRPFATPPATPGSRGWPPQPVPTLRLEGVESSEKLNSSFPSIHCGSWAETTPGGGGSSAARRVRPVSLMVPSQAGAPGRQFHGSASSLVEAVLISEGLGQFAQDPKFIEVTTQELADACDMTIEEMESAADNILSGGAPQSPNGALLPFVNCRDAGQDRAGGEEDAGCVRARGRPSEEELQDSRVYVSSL
UniProt P16388, whole entry: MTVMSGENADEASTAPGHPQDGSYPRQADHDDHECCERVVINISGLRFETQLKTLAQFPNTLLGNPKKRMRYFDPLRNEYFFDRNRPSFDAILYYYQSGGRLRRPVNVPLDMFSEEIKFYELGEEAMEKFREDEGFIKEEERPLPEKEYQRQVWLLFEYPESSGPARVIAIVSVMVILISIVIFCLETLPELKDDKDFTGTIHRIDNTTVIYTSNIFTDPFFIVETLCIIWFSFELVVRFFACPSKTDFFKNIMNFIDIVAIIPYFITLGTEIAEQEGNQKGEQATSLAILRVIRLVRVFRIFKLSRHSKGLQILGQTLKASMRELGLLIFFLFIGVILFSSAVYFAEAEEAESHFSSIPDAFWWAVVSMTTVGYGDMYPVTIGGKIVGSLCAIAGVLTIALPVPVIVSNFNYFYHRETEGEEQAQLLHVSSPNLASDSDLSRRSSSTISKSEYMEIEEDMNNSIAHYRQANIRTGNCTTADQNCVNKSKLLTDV

In data set [2] the target is Kv1.3. Kind of data set: Kd on Kv1.3 [pM].
In another data set the target is Kv11.1 (HERG) (Homo sapiens, UniProt Q12809). Kind of data set: Ion channel specificity panel: Kv11.1 (HERG). It counts as cell-based.
For another data set, the target named is Cav1.2 (Homo sapiens, UniProt Q13936). Kind of data set: Ion channel specificity panel: Cav1.2. It counts as cell-based.
Data set [3] is classed as in vivo, rat. The following applies: single subcutaneous injection of 200 mg/kg.
Data set [4] is described as follows: Stability in rat plasma or PBS containing 2% rat plasma at 37° C. It counts as in vitro ADME. The following applies: rat plasma.
The test system of a further data set is human PBMCs. Kind of data set: Cytotoxicity (% dead cells), human PBMCs. The format is cell-based. To be noted: 100 nM, 48 hours.
Data set [5] is described as follows: Cytotoxicity (% dead cells), PAS T cells. It counts as cell-based, rat. The following applies: 100 nM, 48 hours.
A short description of data set [6]: Cytotoxicity (% dead cells), Burkitt lymphoma. The following applies: 100 nM, 48 hours. It counts as cell-based.
For a further data set, the system named is conscious rats. Kind of data set: Heart rate variability analysis (electrocardiogram) in conscious rats. It counts as in vivo, rat. To be noted: acute, 10 μg/kg.
The subject of a further data set is Rats with EAE. Kind of data set: Toxicity in rats with EAE. It counts as in vivo, rat. To be noted: 10 mg/kg/day for 10 days.
Another data set concerns the target T2, Kv1.1 (Mus musculus, UniProt P16388).
T2 construct: expressed in transfected cells
Kind of data set: Patch-clamp block of Kv1.1 channels stably expressed in L929 cells. It counts as cell-based.

“Also recorded” adds a separate entry of the source.

In general, Kd refers to a measure of binding affinity in units of concentration.

With `CC[C@H](C)[C@@H]1NC(=O)[C@@H](NC(=O)[C@H](CO)NC(=O)[C@H](CCCNC(=N)N)NC(=O)COCCOCCNC(=O)[C@H](N)Cc2ccc(OP(=O)(O)O)cc2)CSSC[C@@H](C(=O)O)NC(=O)[C@H]([C@@H](C)O)NC(=O)CNC(=O)[C@@H]2CSSC[C@@H]3NC(=O)[C@H](CCC(N)=O)NC(=O)[C@H](Cc4ccccc4)NC(=O)[C@H](C)NC(=O)[C@H]([C@@H](C)O)NC(=O)[C@H](CSSC[C@H](NC(=O)[C@H](Cc4ccccc4)NC(=O)[C@H](CO)NC(=O)[C@H](CC(C)C)NC(=O)[C@H](CCCNC(=N)N)NC(=O)[C@H](Cc4ccc(O)cc4)NC(=O)[C@H](CCCCN)NC(=O)[C@H](CCSC)NC(=O)[C@H](CO)NC(=O)[C@H](Cc4c[nH]cn4)NC(=O)[C@H](CCCCN)NC3=O)C(=O)N[C@@H](CCCNC(=N)N)C(=O)N[C@@H](CCCCN)C(=O)N[C@@H]([C@@H](C)O)C(=O)N2)NC(=O)[C@H](CCCNC(=N)N)NC(=O)[C@H](CO)NC(=O)[C@H](CCCCN)NC(=O)[C@@H]2CCCN2C(=O)[C@H]([C@@H](C)CC)NC(=O)[C@H]([C@@H](C)O)NC(=O)[C@H](CC(=O)O)NC1=O` [ShK(D5)], the “potency compared with ShK(L5)” value on Kv1.3 [1] is “an order of magnitude less potent”. For the same molecule, binding at Kv1.3 [2] was characterised by a dissociation constant (Kd) of 1.1 nM.
Consider `CC[C@H](C)[C@@H]1NC(=O)[C@@H](NC(=O)[C@H](CO)NC(=O)[C@H](CCCNC(=N)N)NC(=O)COCCOCCNC(=O)[C@@H](N)Cc2ccc(O)cc2)CSSC[C@@H](C(=O)O)NC(=O)[C@H]([C@@H](C)O)NC(=O)CNC(=O)[C@@H]2CSSC[C@@H]3NC(=O)[C@H](CCC(N)=O)NC(=O)[C@H](Cc4ccccc4)NC(=O)[C@H](C)NC(=O)[C@H]([C@@H](C)O)NC(=O)[C@H](CSSC[C@H](NC(=O)[C@H](Cc4ccccc4)NC(=O)[C@H](CO)NC(=O)[C@H](CC(C)C)NC(=O)[C@H](CCCNC(=N)N)NC(=O)[C@H](Cc4ccc(O)cc4)NC(=O)[C@H](CCCCN)NC(=O)[C@H](CCSC)NC(=O)[C@H](CO)NC(=O)[C@H](Cc4c[nH]cn4)NC(=O)[C@H](CCCCN)NC3=O)C(=O)N[C@@H](CCCNC(=N)N)C(=O)N[C@@H](CCCCN)C(=O)N[C@@H]([C@@H](C)O)C(=O)N2)NC(=O)[C@H](CCCNC(=N)N)NC(=O)[C@H](CO)NC(=O)[C@H](CCCCN)NC(=O)[C@@H]2CCCN2C(=O)[C@H]([C@@H](C)CC)NC(=O)[C@H]([C@@H](C)O)NC(=O)[C@H](CC(=O)O)NC1=O` [ShK(L4)], for which, at Kv1.3 [2], the affinity, expressed as Kd, was 0.047 ± 0.006 nM.
In the case of `CC[C@H](C)[C@@H]1NC(=O)[C@@H](NC(=O)[C@H](CO)NC(=O)[C@H](CCCNC(=N)N)NC(=O)COCCOCCNC(=O)[C@@H](N)Cc2ccc(OP(=O)(O)O)cc2)CSSC[C@@H](C(=O)O)NC(=O)[C@H]([C@@H](C)O)NC(=O)CNC(=O)[C@@H]2CSSC[C@@H]3NC(=O)[C@H](CCC(N)=O)NC(=O)[C@H](Cc4ccccc4)NC(=O)[C@H](C)NC(=O)[C@H]([C@@H](C)O)NC(=O)[C@H](CSSC[C@H](NC(=O)[C@H](Cc4ccccc4)NC(=O)[C@H](CO)NC(=O)[C@H](CC(C)C)NC(=O)[C@H](CCCNC(=N)N)NC(=O)[C@H](Cc4ccc(O)cc4)NC(=O)[C@H](CCCCN)NC(=O)[C@H](CCSC)NC(=O)[C@H](CO)NC(=O)[C@H](Cc4cnc[nH]4)NC(=O)[C@H](CCCCN)NC3=O)C(=O)N[C@@H](CCCNC(=N)N)C(=O)N[C@@H](CCCCN)C(=O)N[C@@H]([C@@H](C)O)C(=O)N2)NC(=O)[C@H](CCCNC(=N)N)NC(=O)[C@H](CO)NC(=O)[C@H](CCCCN)NC(=O)[C@@H]2CCCN2C(=O)[C@H]([C@@H](C)CC)NC(=O)[C@H]([C@@H](C)O)NC(=O)[C@H](CC(=O)O)NC1=O` [ShK(L5)], the Kd on Kv11.1 (HERG) was > 100 nM. For the same molecule, at Kv11.1 (HERG) (100 nM), the “effect on Kv11.1 channels” value is reported as “no effect”. In addition, the Kd at Cav1.2 is > 100 nM. In addition, in data set [3], the Peak serum level is on record as 12 nM and the “time at which detectable in serum after injection” value amounted to 5 min. The stability in plasma entry in data set [4] is on record as “remarkably stable in plasma; also recorded: extremely stable in plasma”. In the data set on human PBMCs, the “cytotoxicity in human and rat lymphoid cells” value was “minimal cytotoxicity”. In [5], this molecule yielded a cytotoxicity at 0.1 µM of 8.1 ± 0.8%. The molecule also came in with a cytotoxicity at 0.1 µM in data set [6] of 3.1 ± 0.9%. In addition, in the data set with conscious rats, the “HF (n.u.)” value stood at 79 ± 37 n.u, the “LF (n.u.)” value was 64 ± 10 n.u and the SDANN5 min amounted to 6.9 ± 2.3. Moreover, the signs of toxicity result with Rats with EAE is recorded as “no signs of toxicity”.
Regarding `CC[C@H](C)[C@@H]1NC(=O)[C@@H](NC(=O)[C@H](CO)NC(=O)[C@H](CCCNC(=N)N)NC(=O)COCCOCCNC(=O)[C@@H](N)Cc2ccc(OP(=O)(O)OC)cc2)CSSC[C@@H](C(=O)O)NC(=O)[C@H]([C@@H](C)O)NC(=O)CNC(=O)[C@@H]2CSSC[C@@H]3NC(=O)[C@H](CCC(N)=O)NC(=O)[C@H](Cc4ccccc4)NC(=O)[C@H](C)NC(=O)[C@H]([C@@H](C)O)NC(=O)[C@H](CSSC[C@H](NC(=O)[C@H](Cc4ccccc4)NC(=O)[C@H](CO)NC(=O)[C@H](CC(C)C)NC(=O)[C@H](CCCNC(=N)N)NC(=O)[C@H](Cc4ccc(O)cc4)NC(=O)[C@H](CCCCN)NC(=O)[C@H](CCSC)NC(=O)[C@H](CO)NC(=O)[C@H](Cc4c[nH]cn4)NC(=O)[C@H](CCCCN)NC3=O)C(=O)N[C@@H](CCCNC(=N)N)C(=O)N[C@@H](CCCCN)C(=O)N[C@@H]([C@@H](C)O)C(=O)N2)NC(=O)[C@H](CCCNC(=N)N)NC(=O)[C@H](CO)NC(=O)[C@H](CCCCN)NC(=O)[C@@H]2CCCN2C(=O)[C@H]([C@@H](C)CC)NC(=O)[C@H]([C@@H](C)O)NC(=O)[C@H](CC(=O)O)NC1=O` [ShK(L6)], the “selectivity for Kv1.3 over Kv1.1” value on Kv1.1 came to 11 fold.
For the molecule `CC[C@H](C)[C@@H]1NC(=O)[C@@H](NC(=O)[C@H](CO)NC(=O)[C@H](CCCNC(=N)N)NC(=O)COCCOCCNC(=O)[C@@H](N)Cc2ccc(C(=O)O)cc2)CSSC[C@@H](C(=O)O)NC(=O)[C@H]([C@@H](C)O)NC(=O)CNC(=O)[C@@H]2CSSC[C@@H]3NC(=O)[C@H](CCC(N)=O)NC(=O)[C@H](Cc4ccccc4)NC(=O)[C@H](C)NC(=O)[C@H]([C@@H](C)O)NC(=O)[C@H](CSSC[C@H](NC(=O)[C@H](Cc4ccccc4)NC(=O)[C@H](CO)NC(=O)[C@H](CC(C)C)NC(=O)[C@H](CCCNC(=N)N)NC(=O)[C@H](Cc4ccc(O)cc4)NC(=O)[C@H](CCCCN)NC(=O)[C@H](CCSC)NC(=O)[C@H](CO)NC(=O)[C@H](Cc4c[nH]cn4)NC(=O)[C@H](CCCCN)NC3=O)C(=O)N[C@@H](CCCNC(=N)N)C(=O)N[C@@H](CCCCN)C(=O)N[C@@H]([C@@H](C)O)C(=O)N2)NC(=O)[C@H](CCCNC(=N)N)NC(=O)[C@H](CO)NC(=O)[C@H](CCCCN)NC(=O)[C@@H]2CCCN2C(=O)[C@H]([C@@H](C)CC)NC(=O)[C@H]([C@@H](C)O)NC(=O)[C@H](CC(=O)O)NC1=O` [ShK(L9), L-p-COOH-Phe], the Kd on Kv1.3 [2] was found to be 0.094 ± 0.007 nM.

Values taken from patent publication US8080523B2 (The Regents of the University of California, priority 2004, dated 2011).
